{
  "sequences": {"note": "Protein sequences, listed by entry. Tags and fused reporters are not part of them.", "UniProt P21554, whole entry": "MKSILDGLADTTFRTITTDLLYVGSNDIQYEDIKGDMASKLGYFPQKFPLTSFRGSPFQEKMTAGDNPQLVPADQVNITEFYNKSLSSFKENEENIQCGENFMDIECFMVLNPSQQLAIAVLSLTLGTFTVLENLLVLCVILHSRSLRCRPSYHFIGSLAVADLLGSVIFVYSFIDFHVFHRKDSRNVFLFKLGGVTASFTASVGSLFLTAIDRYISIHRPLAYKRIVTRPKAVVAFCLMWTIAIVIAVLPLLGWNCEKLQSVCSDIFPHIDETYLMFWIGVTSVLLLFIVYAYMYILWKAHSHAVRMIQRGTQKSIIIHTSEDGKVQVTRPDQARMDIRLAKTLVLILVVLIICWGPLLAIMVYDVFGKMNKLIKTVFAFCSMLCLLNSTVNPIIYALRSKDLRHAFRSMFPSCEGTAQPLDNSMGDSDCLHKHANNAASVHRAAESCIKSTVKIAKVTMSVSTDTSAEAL"},
  "source": "ChEMBL document CHEMBL1833971",
  "about": "“Towards rational design of cannabinoid receptor 1 (CB1) antagonists for peripheral selectivity” (Bioorg Med Chem Lett, 2011)",
  "molecular_target": "Cannabinoid receptor 1 (Homo sapiens, UniProt P21554)",
  "test": "Antagonist activity at human CB1 receptor transfected in CHO-K1 cells co-expressing G-alpha-q16 protein assessed as inhibition of G-alpha-q16 protein-mediated intracellular calcium mobilization",
  "format": "functional, cell-based",
  "procedure,_shortened": "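Fluorescent intracellular calcium read-out in CHO-K1 cells expressing CB1 coupled via Gαq16. Cells pre-incubated with test agent, then a CP55940 concentration-response was run. Antagonism seen as a rightward shift of the agonist curve. Apparent dissociation constant Ke was derived from agonist EC50 with versus without antagonist.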",
  "data": [
    {"molecule": "Cc1c(C(=O)NCC2CCC(CNS(C)(=O)=O)CC2)nn(-c2ccc(Cl)cc2Cl)c1-c1ccc(Cl)cc1", "note": "(mixture of isomers)", "values": [
      {"measurement": "Ke", "result": 0.113, "unit": "µM"}
    ]}
  ]
}
